Measured affinities in a library of Ab-14 light chain variants

All variants were tested on one target, the spike HR2 peptide PDVDLGDISGINAS (SARS-CoV-2).

Each scFv is VH, the linker GGGGSGGGGSGGGGS, VL, as in the parent Ab-14, and differs from it in the CDRs of the light chain only.
VH: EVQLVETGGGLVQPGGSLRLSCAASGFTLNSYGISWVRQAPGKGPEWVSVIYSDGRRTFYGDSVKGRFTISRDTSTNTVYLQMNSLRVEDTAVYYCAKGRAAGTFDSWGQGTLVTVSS
VL: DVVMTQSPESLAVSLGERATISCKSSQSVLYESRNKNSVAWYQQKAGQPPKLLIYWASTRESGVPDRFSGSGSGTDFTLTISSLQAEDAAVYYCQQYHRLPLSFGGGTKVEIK

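The starting antibody came from a phage panning campaign against this peptide. This is the validation round: designs drawn from the data on random variants, tested in the same kind of assay. Group labels follow the data file (Ctrl: baseline library sampled from a position-specific scoring matrix, with some repeated check sequences; Rand: our label for a block that the file lists under HC and that is probably the random mutants of the ten best first-round binders; GP: Gaussian process model; HC: hill climbing; Gen: genetic algorithm; Gibbs: Gibbs sampling; a sequence that several methods proposed may carry one label only). In AlphaSeq, yeast of one mating type display the scFv and yeast of the other type display the target. The frequency of each diploid, read from paired DNA barcodes, reflects how well the two displayed proteins bind. A regression on co-assayed BCL2-family reference pairs converts the normalised counts of each replicate to an apparent Kd. The assay was run in six technical replicates.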

Substitutions are numbered in sequence along the VL above, starting at 1 (not Kabat).
Variants here have at most six changes.
The Kd shown is the geometric mean over detected replicates; a lower Kd is a better binder.
An entry "no signal" has no value in the source: the pair was not observed among the diploids in any replicate. This suggests poor binding but is not conclusive.
Empty control strains, which show no peptide, gave a signal in 4% of pairings with all light chain designs; the median was 430 nM and 95% of these signals were weaker than 38 nM. No background was subtracted. Also given: how often the same scFv was detected with the empty control strains.
The authors' rule: three or more of the six replicates give a measured affinity, fewer mean a poor binder.
The parent sequence was in this pool as ten entries: three were never detected, three once, and four in most replicates, with averages from 2.2 nM to 240 nM.
A sequence measured in both rounds can read differently, since the two assays cover different ranges.

changes,group,apparent Kd,replicates with signal,empty controls
S25E/Q27K/H98S,Ctrl,640 nM,1 of 6,0 of 18
L30V/S33P/W56N/Y97W,Ctrl,no signal,0 of 6,1 of 18
S28L/K36D/S38P/W56S/L100I,Ctrl,31 nM,6 of 6,1 of 18
K24Y/S25L/L30Q/W56S/S62Y/S103M,GP_Gibbs,1.8 nM,6 of 6,0 of 18
S25L/S26Q/W56G,GP_Gen,930 pM,6 of 6,0 of 18
S25M/Y31M/S33H/K36S/W56D/T59L,GP_HC,770 pM,6 of 6,2 of 18
S25I/S26R/R99V,Ctrl,29 nM,6 of 6,2 of 18
S28V/V29Y/W56N,GP_HC,790 pM,6 of 6,7 of 18
S25L/V29T/E32D/R34P/H98K,GP_HC,36 nM,2 of 6,0 of 18
S25L/S38N/W56E/S62D,GP_Gen,370 pM,6 of 6,0 of 18
L30Q/K36A/W56S/T59I,Ctrl,3.3 nM,6 of 6,0 of 18
S25L/S26Q/V29E/W56E,GP_Gen,640 pM,6 of 6,0 of 18
S25L/W56G/E61C,GP_Gen,400 pM,6 of 6,0 of 18
S28N/E32Q/S62N,Ctrl,600 nM,4 of 6,0 of 18
E32M/R34S/K36F/W56D/T59W,Ctrl,1.9 µM,2 of 6,0 of 18
S26L/V39T/W56H/S62D/H98G,Rand,54 nM,6 of 6,1 of 18
S38A/W56G/S62T,Ctrl,3.1 nM,6 of 6,3 of 18
L30S/T59Y,Ctrl,79 nM,5 of 6,0 of 18
S25F/N35T/K36S/W56N,GP_HC,370 pM,6 of 6,3 of 18
N35M/H98Q,Ctrl,13 nM,1 of 6,0 of 18
S25I/V29A/R34L/S62D,Ctrl,7.2 nM,6 of 6,3 of 18
S25F/W56M/T59Y,GP_HC,42 nM,6 of 6,1 of 18
S25I/Y31H/W56G,Ctrl,2.6 nM,6 of 6,0 of 18
S25V/V29W/L30D/Y31M/W56E,GP_HC,680 pM,6 of 6,1 of 18
S25Q/S28E,Ctrl,no signal,0 of 6,0 of 18
S26D/V29L/R34N/W56E,Ctrl,1.3 nM,6 of 6,2 of 18
K24F/S26Q/K36F/W56H/S62D,GP_HC,5.5 nM,6 of 6,1 of 18
S25K/S28Q/W56R,Ctrl,no signal,0 of 6,0 of 18
S25V/Q27I/V29F/Y31L/W56E,GP_HC,860 pM,6 of 6,0 of 18
S25L/S26D/V29D/W56E,GP_Gen,730 pM,6 of 6,2 of 18
W56R/Q96G,Ctrl,37 nM,1 of 6,0 of 18
S25F/V29G/W56D,GP_Gen,570 pM,6 of 6,1 of 18
S25L/S26F/V29M/V39L/L100Y/S103R,Ctrl,no signal,0 of 6,0 of 18
S25F/W56N/Q96W,GP_HC,190 nM,6 of 6,1 of 18
W56N/T59K,Ctrl,42 nM,6 of 6,0 of 18
S25V/V29Q/N35M/W56N/T59Q,GP_Gen,1.4 nM,6 of 6,2 of 18
S25L/Q27G/W56N,GP_Gen,370 pM,6 of 6,1 of 18
S25L/Q27A/V29E/W56N,GP_Gen,810 pM,6 of 6,3 of 18
R99Y,Ctrl,no signal,0 of 6,0 of 18
S25M/V29M/W56N/T59Q,GP_Gen,560 pM,6 of 6,0 of 18
S25L/Q27M/V29M/W56D/T59Q,GP_Gen,770 pM,6 of 6,4 of 18
V39I/W56K/H98K,Ctrl,no signal,0 of 6,0 of 18
Y31I/W56E/S62N,Ctrl,2.4 nM,6 of 6,1 of 18
S25F/V29Q/W56G/P101T,GP_HC,960 pM,6 of 6,0 of 18
R34S/N37H/W56D,Ctrl,820 pM,6 of 6,2 of 18
S25L/S26Y/V29Q/N35M/W56N/T59Q,GP_Gen,1.7 nM,6 of 6,2 of 18

The opening 7 entries, copied out:

changes	group	apparent Kd	replicates with signal	empty controls
S25E/Q27K/H98S	Ctrl	640 nM	1 of 6	0 of 18
L30V/S33P/W56N/Y97W	Ctrl	no signal	0 of 6	1 of 18
S28L/K36D/S38P/W56S/L100I	Ctrl	31 nM	6 of 6	1 of 18
K24Y/S25L/L30Q/W56S/S62Y/S103M	GP_Gibbs	1.8 nM	6 of 6	0 of 18
S25L/S26Q/W56G	GP_Gen	930 pM	6 of 6	0 of 18
S25M/Y31M/S33H/K36S/W56D/T59L	GP_HC	770 pM	6 of 6	2 of 18
S25I/S26R/R99V	Ctrl	29 nM	6 of 6	2 of 18

From the AlphaSeq antibody data of Li et al. 2023 (doi:10.1038/s41467-023-39022-2), copy in the FLAb collection.